The target of the assay is T1, cynomolgus monkey 4-1BB (cynomolgus monkey).
T1 construct: whole, on cells; also called CHO-K1-cyno 4-1BB; CHO-K1/cyno4-1BB
Put plainly: FACS, CHO-K1/cyno 4-1BB cells [C].

B1: PR004161 (bispecific antibody, human IgG1, kappa, L234A L235A)
light: not shown
heavy: not shown
chain: EVQLVESGGGVVQPGGSLRLSCAASGFTFSNYAMTWVRQAPEKGLEWVSSISGSGVSTYYADSVKGRFTISRDNSKNTLYLQMTRLTAEDTAVYFCAKEGSSETDDHYYNVDVWGQGTTVTVSSGGGGSGGGGSGGGGSEVQLVESGGGVVQPGGSLRLSCAASGFTFSNYAMTWVRQAPEKGLEWVSSISGSGVSTYYADSVKGRFTISRDNSKNTLYLQMTRLTAEDTAVYFCAKEGSSETDDHYYNVDVWGQGTTVTVSSASGGGGSGGGGSGGGGSEVQLVESGGGVVQPGGSLRLSCAASGFTFSNYAMTWVRQAPEKGLEWVSSISGSGVSTYYADSVKGRFTISRDNSKNTLYLQMTRLTAEDTAVYFCAKEGSSETDDHYYNVDVWGQGTTVTVSSASEPKSSDKTHTCPPCPAPEAAGGPSVFLFPPKPKDTLMISRTPEVTCVVVDVSHEDPEVKFNWYVDGVEVHNAKTKPREEQYNSTYRVVSVLTVLHQDWLNGKEYKCKVSNKALPAPIEKTISKAKGQPREPQVCTLPPSREEMTKNQVSLSCAVKGFYPSDIAVEWESNGQPENNYKTTPPVLDSDGSFFLVSKLTVDKSRWQQGNVFSCSVMHEALHNHYTQKSLSLSPGK
A word on the EC50: it is the concentration at which the effect is half-maximal. Turning to B1, the 50% effective concentration (EC50) was 0.25 nM and the “Maximum MFI” value was found to be 16800 MFI.

B2: PR004160 (bispecific antibody, human IgG1, kappa, L234A L235A)
light: not shown
heavy: not shown
chain: EVQLVESGGGVVQPGGSLRLSCAASGFTFSNYAMTWVRQAPEKGLEWVSSISGSGVSTYYADSVKGRFTISRDNSKNTLYLQMTRLTAEDTAVYFCAKEGSSETDDHYYNVDVWGQGTTVTVSSGGGGSGGGGSGGGGSEVQLVESGGGVVQPGGSLRLSCAASGFTFSNYAMTWVRQAPEKGLEWVSSISGSGVSTYYADSVKGRFTISRDNSKNTLYLQMTRLTAEDTAVYFCAKEGSSETDDHYYNVDVWGQGTTVTVSSASEPKSSDKTHTCPPCPAPEAAGGPSVFLFPPKPKDTLMISRTPEVTCVVVDVSHEDPEVKFNWYVDGVEVHNAKTKPREEQYNSTYRVVSVLTVLHQDWLNGKEYKCKVSNKALPAPIEKTISKAKGQPREPQVCTLPPSREEMTKNQVSLSCAVKGFYPSDIAVEWESNGQPENNYKTTPPVLDSDGSFFLVSKLTVDKSRWQQGNVFSCSVMHEALHNHYTQKSLSLSPGK
For the molecule B2, it took 0.645 nM to reach a half-maximal effect (EC50) and the “Maximum MFI” value was 27200 MFI.

The values are drawn from patent US20230235090A1 (HARBOUR BIOMED US, published 2023).
